Measurements from ChEMBL document CHEMBL1122439, “Conformational requirements for histamine H2-receptor inhibitors: a structure-activity study of phenylene analogues related to cimetidine and tiotidine” (J Med Chem, 1983).

Protein sequences, listed by entry. Tags and fused reporters are not part of them.
UniProt P47747, whole entry: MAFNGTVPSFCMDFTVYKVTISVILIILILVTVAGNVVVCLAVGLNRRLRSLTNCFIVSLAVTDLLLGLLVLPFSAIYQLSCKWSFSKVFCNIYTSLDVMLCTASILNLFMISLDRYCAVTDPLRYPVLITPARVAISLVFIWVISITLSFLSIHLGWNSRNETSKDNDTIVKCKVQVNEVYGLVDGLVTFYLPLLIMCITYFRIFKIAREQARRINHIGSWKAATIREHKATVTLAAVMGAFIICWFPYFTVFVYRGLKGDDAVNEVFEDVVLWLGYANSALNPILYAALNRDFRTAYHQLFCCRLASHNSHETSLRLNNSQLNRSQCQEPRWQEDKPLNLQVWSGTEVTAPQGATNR

Biological target: Histamine H2 receptor (Cavia porcellus, UniProt P47747)
Test: Evaluated in vitro for Histamine H2 receptor inhibition using the dimaprit stimulated chronotropic response of the guinea pig atrium
Format: tissue-based, Cardiac atrium
Procedure, shortened: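 Isolated guinea pig atria; chronotropic response to rising concentrations of H2 agonist dimaprit (10⁻⁷–10⁻⁴ M) in presence of test agent; three to four atria per test concentration; -log K_I = log(ED50 dose ratio − 1) − log(drug dose).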

CNC(=NCCSCc1csc(N=C(N)N)n1)NC#N [TIOTIDINE]
Ki: 31.6 nM
